Earlier results in article PMC10810133, “Exploring the inhibitory potential of in silico-designed small peptides on Helicobacter pylori Hp0231 (DsbK), a periplasmic oxidoreductase involved in disulfide bond formation” (Frontiers in Molecular Biosciences, 2024).

Protein sequences, listed by entry. Tags and fused reporters are not part of them. Residues count along the entry.
UniProt P0AEG4, 20-208: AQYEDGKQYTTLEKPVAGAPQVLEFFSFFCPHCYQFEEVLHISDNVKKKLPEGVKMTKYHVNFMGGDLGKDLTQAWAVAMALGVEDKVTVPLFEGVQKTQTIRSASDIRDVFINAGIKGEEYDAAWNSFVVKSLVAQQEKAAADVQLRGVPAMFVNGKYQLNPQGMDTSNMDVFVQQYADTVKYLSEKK

Target: DsbA (Escherichia coli) (UniProt P0AEG4)
Conditions: cited from earlier work

In the case of DsbB P2 loop nonapeptide, the Kd is listed as 4 µM.
